According to article PMC5823874:

Target: iPLA2β (UniProt O60733)
Assay: fluorescent liposome activity assay

Ki: 23 nM
Substance: calmodulin (from UniProt P0DP23)
